## Apparent affinities of Ab-14 variants for a coronavirus HR2 peptide

Target: peptide PDVDLGDISGINAS, taken from heptad repeat 2 (HR2) of SARS-CoV-2 spike.

The variants keep the light chain, the linker and the frameworks of Ab-14 (scFv order VH, a (GGGGS)3 linker, VL).
VH: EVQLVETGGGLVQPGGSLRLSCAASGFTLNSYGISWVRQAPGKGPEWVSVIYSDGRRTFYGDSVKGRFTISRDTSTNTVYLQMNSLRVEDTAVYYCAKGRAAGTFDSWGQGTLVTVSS
VL: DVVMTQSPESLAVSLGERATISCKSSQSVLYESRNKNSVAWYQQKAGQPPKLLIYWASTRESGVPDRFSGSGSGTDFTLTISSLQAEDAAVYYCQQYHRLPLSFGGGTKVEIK

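The starting antibody came from a phage panning campaign against this peptide. Designed CDR sequences, proposed from the first random library and measured here. Their group label is 14H_GPLM_Gibbs (GPLM: also part of the Gaussian process libraries; Gibbs: Gibbs sampling; a sequence that several methods proposed may carry one label only). Affinity was read by AlphaSeq, a pooled yeast mating assay with surface-displayed partners. Mating (16 h, 30 °C) was followed by selection of diploids and sequencing of their barcodes. Read counts were normalised to the haploid input and turned into Kd by a linear fit to BCL2-family pairs of known affinity, for each replicate. Each pool was mated in six replicate cultures.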

Positions count from residue 1 of the parent VH; T28S puts S in place of T.
Affinities are written as log10 Kd with Kd in nM; a lower number is a better binder.
A pair that was not seen in that replicate is written "n.d."; this usually means weak binding, but a binder can also be missed.
The range of this assay differs from that of the first round, and the authors advise against merging the two.
As a blank, each scFv also met three strains without target: over all heavy chain designs, 1% of these pairings were detected, typically at 2.08 and seldom below 0.84. For each scFv, signals with the empty controls are counted beside the result, with their mean in brackets.
In the paper, a design with two or fewer of six values counts as a poor binder.

changes	log10 Kd (nM) by replicate	control signals
T28S/S31E/A101Q/S107G	0.98 0.65 0.47 0.33 0.10 0.39	0/18
T28H/G61S/R100K/A101T	0.29 0.18 0.64 1.34 0.77 0.25	0/18
T28E/G61I/A101V	0.93 0.95 1.16 0.86 1.22 0.71	0/18
T28H/G61V/A101T	0.90 n.d. n.d. n.d. n.d. n.d.	1/18 (0.65)
T28D/R100N	0.34 0.18 0.58 0.56 0.37 0.72	1/18 (1.78)
T28N/S31E/R100Q	0.38 0.04 -0.09 -0.05 0.32 0.14	2/18 (2.44)
T28H/R100K/A101Q	n.d. 0.71 2.08 0.24 1.19 0.14	0/18
T28S/G61A/A101M/S107N	1.18 n.d. 0.24 0.23 1.26 1.65	0/18
R56W/G61S/A101T	1.35 1.04 0.93 0.69 1.12 1.71	0/18
N30E/S53A/S107L	-0.26 0.24 0.20 -0.68 0.58 0.38	2/18 (2.23)
T28N/R100K/A101S	n.d. 2.40 n.d. 1.24 1.64 2.23	0/18
G26K/T28S/S31E/A101Q	1.65 1.28 1.57 1.83 2.76 2.20	0/18
T28E/G61A/S63D/A101Q	0.40 1.21 0.80 0.49 0.55 1.11	1/18 (2.65)
T28D/G61S/A101E/S107T	0.14 -0.49 -0.33 -0.49 -0.40 -0.30	0/18
T28S/R100N/A101V/S107N	n.d. 2.08 1.63 0.61 0.61 0.86	0/18
T28A/R100K/A101T	1.86 n.d. 0.86 n.d. 1.00 0.45	0/18
G61I/R100N/S107T	n.d. n.d. 0.79 1.22 0.13 1.21	0/18
T28D/G61A/R100K/S107T	0.27 0.04 -0.22 0.11 0.31 -0.60	0/18
T28E/G61A/S107K	1.85 1.40 1.04 1.15 1.17 0.87	1/18 (2.72)
T28S/S31E/S53A/A101T	-0.72 -0.18 0.06 0.67 -0.29 0.34	0/18
T28D/G61A/A101V/S107T	n.d. n.d. n.d. 1.44 0.46 0.72	0/18
R56K/G61S/A101T/S107T	n.d. n.d. 0.60 n.d. 0.72 0.80	0/18
T28E/G61A/R100K/S107A	-0.10 -0.33 -0.08 -0.43 0.21 -0.13	0/18
T28S/S31A/F59A	0.16 0.46 1.01 0.78 0.49 0.73	0/18
T28E/R56K/A101Q	n.d. 0.12 n.d. 0.37 n.d. 0.26	0/18
G61S/R100Q/S107K	n.d. 0.30 0.29 0.59 1.34 1.45	0/18
T28N/G61I/R100H	1.45 n.d. n.d. n.d. n.d. n.d.	0/18
T28S/S31E/R100I/A101T	-0.02 0.20 0.03 -0.47 0.02 0.06	0/18
T28E/G61K/R100E	n.d. 1.32 1.74 1.09 1.64 1.79	0/18
T28E/A101T/S107A	0.57 0.60 0.25 0.32 0.50 0.56	0/18
T28S/S31E/G61I/R100H	0.50 0.21 0.18 0.25 0.06 0.21	0/18
T28W/S31D/G61V/A101Q	n.d. 1.94 n.d. 2.02 2.27 1.99	0/18
T28G/S31E/A101E/S107T	-0.42 -0.52 -0.70 -0.84 -0.31 -0.86	1/18 (1.07)

Extract of 5 entries:

changes	log10 Kd (nM) by replicate	control signals
T28S/S31E/G61I/R100H	0.50 0.21 0.18 0.25 0.06 0.21	0/18
G26K/T28S/S31E/A101Q	1.65 1.28 1.57 1.83 2.76 2.20	0/18
G61I/R100N/S107T	n.d. n.d. 0.79 1.22 0.13 1.21	0/18
T28E/G61A/R100K/S107A	-0.10 -0.33 -0.08 -0.43 0.21 -0.13	0/18
T28A/R100K/A101T	1.86 n.d. 0.86 n.d. 1.00 0.45	0/18

Values reported by Li et al. 2023, doi:10.1038/s41467-023-39022-2 (FLAb copy).